Yeast mating assay 1: variants of the scFv Ab-14

Source: Engelhart et al. 2022 (doi:10.1038/s41597-022-01779-4), MIT Lincoln Laboratory and A-Alpha Bio; data file from the FLAb repository.

Binding partner: SARS-CoV-2 spike HR2 peptide, sequence PDVDLGDISGINAS.

Ab-14 is the parent antibody, in scFv form: VH, then the linker GGGGSGGGGSGGGGS, then VL. The light chain is unchanged in all variants.
VH: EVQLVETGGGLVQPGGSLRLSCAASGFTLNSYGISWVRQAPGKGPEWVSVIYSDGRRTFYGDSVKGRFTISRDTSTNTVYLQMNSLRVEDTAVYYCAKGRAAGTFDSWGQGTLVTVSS
VL: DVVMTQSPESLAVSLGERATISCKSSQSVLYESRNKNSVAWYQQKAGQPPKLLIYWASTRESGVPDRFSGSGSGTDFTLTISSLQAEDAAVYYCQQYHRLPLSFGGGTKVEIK

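The parent was found by panning a naive human phage display library on the peptide. AAYL49 was designed without a model: most single CDR substitutions and a random sample of double and triple ones. Affinity was read by AlphaSeq, a pooled yeast mating assay with surface-displayed partners. After mating in shaken culture at 30 °C for 16 h, diploids were selected and their barcode pairs sequenced. Read counts were normalised to the haploid input and turned into Kd by a linear fit to BCL2-family pairs of known affinity, for each replicate. There are three technical replicates.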

Positions count from residue 1 of the parent VH; G26M puts M in place of G.
The read-out is the apparent dissociation constant on a log10 scale (nM): the lower, the stronger.
Replicates are averaged; those with no signal do not enter the mean.
"nd" means that the variant was in the library but no mating with the target was seen in that replicate; the authors take this as a sign of poor binding, and no number exists.
Three control strains display no target. For library AAYL49, 15% of the pairings with them gave a signal, with a median of 4.06 and one signal in twenty below 2.83, so weak values seen in few replicates may be background. The control count says in how many pairings with the empty strains this scFv gave a signal, with their mean in brackets.

changes	log10 Kd, replicates	log10 Kd (nM), mean	empty controls
G26M/G99C/R100C	nd / nd / nd	nd	0 of 9
S31V/Y52L/D106G	nd / nd / nd	nd	0 of 9
S31Q/G61M/D106T	0.51 / 0.90 / 0.66	0.69	4 of 9 (5.27)
G33T/I51M/R56Q	nd / nd / nd	nd	1 of 9 (3.16)
D54A/T58C/Y60M	nd / nd / 5.40	5.40	1 of 9 (4.36)
Y52T/S53Q/T58L	nd / nd / nd	nd	0 of 9
T28L/S35K/G61K	nd / nd / nd	nd	0 of 9
I51W/Y52V/V64A	nd / nd / 5.41	5.41	3 of 9 (4.21)
I51L/K65W	3.58 / 3.16 / nd	3.37	2 of 9 (3.75)
S35G/Y60D/G99V	nd / nd / nd	nd	2 of 9 (3.26)
S35Q/F59S/Y60P	nd / nd / nd	nd	0 of 9
K65D	nd / nd / nd	nd	0 of 9
F27I/Y60M/D106G	nd / nd / 4.71	4.71	0 of 9
S31I/T58Y/F59Y	2.81 / 2.56 / 2.60	2.66	3 of 9 (4.44)
G55S/G61Y/K65A	nd / nd / nd	nd	1 of 9 (4.92)
G26M/L29F/G55A	nd / nd / nd	nd	1 of 9 (3.39)
G33H/D54H/D106L	nd / nd / nd	nd	0 of 9
N30P/I51C/T104K	nd / nd / 4.63	4.63	3 of 9 (4.20)
S31K/D106Y/S107K	nd / nd / nd	nd	0 of 9
G55S/F59W/D106A	0.86 / 1.02 / 1.00	0.96	1 of 9 (5.62)
F27R/D62T/D106T	nd / nd / 3.09	3.09	1 of 9 (4.25)
S53P/K65T/G99V	nd / 3.28 / nd	3.28	2 of 9 (4.55)
F59M/A102P	0.93 / 1.16 / 1.18	1.09	1 of 9 (3.60)
T58D	1.74 / 2.22 / 2.98	2.31	0 of 9
G55V/F59Y/D106H	nd / nd / nd	nd	0 of 9
R57G/G103S/D106Q	3.15 / nd / 3.03	3.09	1 of 9 (2.61)
Y32I/Y60W/T104Q	3.70 / nd / nd	3.70	1 of 9 (5.52)
I34A/R100K/A101Q	nd / 2.40 / nd	2.40	0 of 9
G55Q/R56C/F105L	nd / nd / nd	nd	0 of 9
S35P/G55S/T104L	nd / nd / nd	nd	0 of 9
G26C/S63D/A102M	nd / nd / 2.58	2.58	0 of 9
S35V/I51L/S63W	nd / nd / nd	nd	2 of 9 (4.20)
Y32G/I51R/G55I	nd / nd / nd	nd	0 of 9
I51R/R100V/S107C	nd / nd / nd	nd	1 of 9 (2.20)
Y52H/G61M/T104N	nd / nd / nd	nd	0 of 9
Y52Q/S53H/R57M	nd / 3.18 / nd	3.18	2 of 9 (4.42)
S63C/G103Y/F105T	1.54 / 1.70 / 1.94	1.73	2 of 9 (4.29)
F59I/A101F/A102W	nd / nd / nd	nd	0 of 9
Y52S/R56K/G103D	4.74 / 3.23 / 3.22	3.73	2 of 9 (5.16)
D54L/S63R/V64R	4.93 / 3.83 / 3.72	4.16	6 of 9 (5.43)

A selection of 6 entries from above:

changes	log10 Kd, replicates	log10 Kd (nM), mean	empty controls
I51L/K65W	3.58 / 3.16 / nd	3.37	2 of 9 (3.75)
T28L/S35K/G61K	nd / nd / nd	nd	0 of 9
S35V/I51L/S63W	nd / nd / nd	nd	2 of 9 (4.20)
F59M/A102P	0.93 / 1.16 / 1.18	1.09	1 of 9 (3.60)
K65D	nd / nd / nd	nd	0 of 9
G26M/G99C/R100C	nd / nd / nd	nd	0 of 9

Parent in this assay: reference entry 0.65, copy in this library 4.11 (one replicate of three).